# Measured values from patent US20230146829A1 (priority 2020, published 2023).
# Chains of the proteins cited; added tags and fusions are not shown. Residues count along the entry.
# UniProt P10275, 1-644 isoform P10275-3: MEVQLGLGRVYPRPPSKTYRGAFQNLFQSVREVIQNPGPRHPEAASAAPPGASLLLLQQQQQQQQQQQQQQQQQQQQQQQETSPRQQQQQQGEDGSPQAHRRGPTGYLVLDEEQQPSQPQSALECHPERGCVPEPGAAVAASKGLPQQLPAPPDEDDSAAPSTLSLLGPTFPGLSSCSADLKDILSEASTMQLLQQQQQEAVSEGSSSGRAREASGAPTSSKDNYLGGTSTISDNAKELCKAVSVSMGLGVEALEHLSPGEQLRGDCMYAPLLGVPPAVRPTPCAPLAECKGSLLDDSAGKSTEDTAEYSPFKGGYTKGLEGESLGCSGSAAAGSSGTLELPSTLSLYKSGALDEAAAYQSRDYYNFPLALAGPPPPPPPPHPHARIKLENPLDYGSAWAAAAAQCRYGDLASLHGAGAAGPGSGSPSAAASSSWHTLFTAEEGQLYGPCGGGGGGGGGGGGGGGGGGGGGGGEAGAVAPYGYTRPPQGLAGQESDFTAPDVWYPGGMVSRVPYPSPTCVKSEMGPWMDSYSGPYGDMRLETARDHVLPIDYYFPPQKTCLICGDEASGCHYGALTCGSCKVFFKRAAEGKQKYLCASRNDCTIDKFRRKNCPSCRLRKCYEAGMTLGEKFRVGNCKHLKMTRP
# UniProt P10275, whole entry T878A: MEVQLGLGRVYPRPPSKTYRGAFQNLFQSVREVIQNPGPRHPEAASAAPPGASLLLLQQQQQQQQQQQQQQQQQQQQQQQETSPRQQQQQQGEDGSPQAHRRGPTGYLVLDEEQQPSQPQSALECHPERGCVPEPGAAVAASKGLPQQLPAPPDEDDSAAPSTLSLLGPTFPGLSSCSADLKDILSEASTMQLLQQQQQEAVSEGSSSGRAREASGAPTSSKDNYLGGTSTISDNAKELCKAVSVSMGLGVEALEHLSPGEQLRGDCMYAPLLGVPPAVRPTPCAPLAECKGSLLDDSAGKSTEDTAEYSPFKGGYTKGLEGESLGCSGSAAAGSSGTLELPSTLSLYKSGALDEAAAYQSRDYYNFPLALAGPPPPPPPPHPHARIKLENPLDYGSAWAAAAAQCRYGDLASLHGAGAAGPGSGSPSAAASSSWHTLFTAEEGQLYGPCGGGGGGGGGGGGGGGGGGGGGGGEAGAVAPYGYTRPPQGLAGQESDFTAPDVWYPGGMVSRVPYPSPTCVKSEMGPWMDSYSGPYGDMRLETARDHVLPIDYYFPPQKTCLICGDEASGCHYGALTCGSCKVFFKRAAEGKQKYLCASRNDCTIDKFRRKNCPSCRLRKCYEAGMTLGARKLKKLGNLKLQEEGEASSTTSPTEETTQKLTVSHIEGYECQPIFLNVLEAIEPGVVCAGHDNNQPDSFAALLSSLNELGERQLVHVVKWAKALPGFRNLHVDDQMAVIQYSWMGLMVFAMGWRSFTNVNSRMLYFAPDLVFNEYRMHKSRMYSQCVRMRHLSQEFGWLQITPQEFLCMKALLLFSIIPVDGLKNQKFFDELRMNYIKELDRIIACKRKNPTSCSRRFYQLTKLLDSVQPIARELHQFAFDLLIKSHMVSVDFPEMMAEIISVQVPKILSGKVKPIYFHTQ
# What was measured:
# [1] = molecular target: AR splice variant (AR SV) in 22RV1 cells (Homo sapiens, UniProt P10275)
# [2] = molecular target: AR full length (AR FL) in LNCaP cells (Homo sapiens, UniProt P10275, T878A)
# AR wildtype (wt) = AR wildtype (wt) (Homo sapiens, UniProt P10275)
smiles,measurement,setting,value
"C[C@](O)(CNC(=O)c1cn[nH]c1)C(=O)Nc1ccc(C#N)c(C(F)(F)F)c1 [Compound 1076, (S)-N-(3-((4-Cyano-3-(trifluoromethyl)phenyl)amino)-2-hydroxy-2-methyloxopropyl)-1H-pyrazole-4-carboxamide]",SARD Activity S.V. (22RV1) % degradation at 10 μM,[1],60%
same,SARD activity: AR SV (AR-V7) degradation in words,[1],some SARD activity; also recorded: significant SARD activity
same,SARD activity: AR FL degradation in words,[2],some SARD activity; also recorded: significant SARD activity
same,wtAR inhibitory activity / potency range in words,AR wildtype (wt),agonist

# Entries after “also recorded” stand apart in the source; their conditions may differ.
